Experimental data: patent publication US20140161767A1, “FOLLICLE-STIMULATING HORMONE (FSH)/LYTIC DOMAIN FUSION CONSTRUCTS AND METHODS OF MAKING AND USING SAME” (BOARD OF SUPERVISORS OF LOUISIANA STATE UNIVERSITY AND …, priority 2012, published 2014)

Key:
[1] = test system: human red blood cells; assay: Acute hemolytic activity on human red blood cells; assay type: cell-based; settings: expressed as HA
Experimental: Acute hemolytic activities for 21 fusion constructs including Phor18-Lupron and D-ala-Phor18-LHRH, were studied.
Hemolytic activity was determined in 96 well plates using a serial dilution of peptides exposed to 0.5% human RBC. Controls were saline (no RBC death) or 0.1% Triton X 100 (100% RBC lysis). The peptide concentrations ranged from 0 to 100 μM. Incubations were conducted for 2 h.

[2] = Maximum tolerated dose (MTD) and safety margin; assay type: in vivo; settings: injected dose resulting in 66.6% survival (acute and 8-14 days post injection)
Experimental: The fusion conjugates have a high safety margin considering parameters such as hemolytic activity, maximum tolerated dose (MTD) (up to 16-25 mg/kg) in comparison with the anti-tumor effective dose (0.02 or 0.01 mg/kg). The safety margin for Phor21-βCG-ala is 16 whereas a value of 800 can be reached for Phor18-βCG-ala and Phor18-LHRH. In comparison the safety margin for Phor18-Lupron is only 8.
4) Injected dose resulting in 66.6% survival (acute and 8-14 days post injection).

[3] = test system: OVCAR-3 xenograft; assay: OVCAR-3 ovarian cancer xenograft; assay type: in vivo; settings: 2 mg/kg dose; procedural, not related to treatment
Experimental: To determine the efficacy of Phor18-LHRH (338613) on ovarian cancer xenografts that resemble the human disease, single and multiple dose studies were conducted. The xenograft model of the OVCAR-3 human ovarian cancer cell line that present functional LHRH receptors was used in this study. OVCAR-3 represents a slow growing xenograft model and secretes the tumor marker (cancer antigen 125, or CA125). It's secretion can be used as treatment response and is a measure of drug activity. […]
A group of 9 tumor bearing mice was sacrificed on day 33 and served as baseline group. […] Tumor volumes and bodyweights were recorded twice weekly during the study, as well as overall veterinarian examination of mice was conducted.
Primary tumors, liver, kidney, pancreas, heart, lung, and spleen were collected, fixed in formalin and prepared for histological evaluation. Tumor weights were measured at necropsy, part of the tumors were frozen at −80° C. for LH/CG and LHRH receptor assay determination.
As a biomarker for drug activity, CA125 was determined in serum, collected from each individual mouse at necropsy using a Enzyme Linked Immunoassay for quantitative determination of ovarian cancer antigen CA125 (Assay kit Genway, Biotech, Inc. San Diego, Calif., Catalog #40-052-115009, # BC-1013 according to the manufacturer).
LHRH receptor levels were assessed from formalin fixed tumors. […]

[4] = test system: MDA-MB-435S xenograft; assay: MDA-MB-435S xenograft, multiple dose regimen; assay type: in vivo, mice; settings: entire study period
Experimental: In order to determine the minimal effective dose necessary to reduce MDA-MB-435S xenograft weights in a multiple dose regimen, Nu/Nu female mice, outbred strain, age 8 weeks (Charles River), were injected (s.c.) into the interscapular region with a MDA-MB-435S (passage #253)/Matrigel suspension (2×10^6 cells/mouse) as previously described above. Phor18-LHRH (338613) (ID: 338613 lot# P080401) (0.002, and 0.2 mg/kg) were reconstituted in USP saline prior to dosing. The doses were given as a single bolus intravenous injection via lateral tail vein on days 15, 16, 17, 20, 21, 22, 23, 27, 28, 29, 30, 33, 34, 35, 36, 37, 38, 40, 41, 42 after tumor cell inoculation. Saline injections served as control groups.
Each treatment group consisted of 16 mice. During the entire study tumor volumes were recorded twice weekly. Final necropsy was conducted on day 45 after tumor cell injection. […] due to occlusion of the tail vein in most mice. At study endpoint body weight, tumor weights were determined and fixed in phosphate buffered 10% formalin.

Q: Which “Hemolytic Activity” value [1] does the source give for “KFAKFAKKFAKFAKKFAKQHWSYGLRPG [Phor18-LHRH]” here?
A: 297 µM

Q: What about the MTD [2] of the same sequence?
A: 16 mg/kg

Q: What about the Deaths at injection [3] of the same sequence?
A: One mouse died during the first injection

Q: And the Bodyweights [4]?
A: not affected
